pIC50, pKd, pKi: −log10 of the molar value. Read-outs that look alike come from different tables or passages of the source.
How the values were obtained:
Y2 receptor subtype = Y2 receptor subtype (Homo sapiens, UniProt P49146); conditions: read-out: IC50 against Y2 receptor subtype; cited from earlier work
hGalR1 = hGalR1 (Homo sapiens, UniProt P47211); experiment: Radioligand binding study, hGalR1 (MDS-PS)
Procedure: (§1) Affinity of NAX 5055 for human hGalR1 and hGalR2 was confirmed in a preliminary radioligand binding study that was conducted by MDS-PS contract screening company (report#1077561, reference: MDSPS 231510 and 231600). In this study, hGalR1 was expressed in HEK-293 cells, whereas hGalR2 was expressed in CHO-K1 cells and human [^125I]galanin was used as the radioligand.

Sequences of proteins named here, by UniProt entry; tags and fusion partners are left off. A change or cut given only in a name is not applied to a line headed by its entry.
UniProt P49146, whole entry: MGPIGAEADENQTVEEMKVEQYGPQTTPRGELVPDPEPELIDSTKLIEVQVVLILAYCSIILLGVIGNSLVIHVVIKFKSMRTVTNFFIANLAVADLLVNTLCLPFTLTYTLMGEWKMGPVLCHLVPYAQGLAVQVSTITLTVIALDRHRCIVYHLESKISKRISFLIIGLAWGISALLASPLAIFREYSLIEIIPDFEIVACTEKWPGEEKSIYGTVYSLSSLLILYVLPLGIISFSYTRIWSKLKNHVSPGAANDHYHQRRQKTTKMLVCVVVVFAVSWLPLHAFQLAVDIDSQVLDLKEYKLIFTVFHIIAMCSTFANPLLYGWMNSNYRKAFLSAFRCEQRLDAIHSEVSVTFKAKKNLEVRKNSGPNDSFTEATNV
UniProt P47211: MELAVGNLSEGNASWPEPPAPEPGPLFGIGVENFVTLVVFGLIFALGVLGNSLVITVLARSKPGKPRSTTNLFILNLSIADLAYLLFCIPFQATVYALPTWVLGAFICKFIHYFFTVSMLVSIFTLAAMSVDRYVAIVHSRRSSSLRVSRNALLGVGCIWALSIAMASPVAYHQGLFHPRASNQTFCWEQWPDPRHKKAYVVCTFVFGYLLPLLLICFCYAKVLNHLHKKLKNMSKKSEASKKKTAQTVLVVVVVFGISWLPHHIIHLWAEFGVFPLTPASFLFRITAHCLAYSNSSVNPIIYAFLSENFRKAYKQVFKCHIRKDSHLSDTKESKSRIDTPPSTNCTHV

hGalR2 = biological target: T1, hGalR2 (Homo sapiens, UniProt O43603); experiment: Radioligand binding study, hGalR2 (MDS-PS)
T1 sequence (O43603 1-387): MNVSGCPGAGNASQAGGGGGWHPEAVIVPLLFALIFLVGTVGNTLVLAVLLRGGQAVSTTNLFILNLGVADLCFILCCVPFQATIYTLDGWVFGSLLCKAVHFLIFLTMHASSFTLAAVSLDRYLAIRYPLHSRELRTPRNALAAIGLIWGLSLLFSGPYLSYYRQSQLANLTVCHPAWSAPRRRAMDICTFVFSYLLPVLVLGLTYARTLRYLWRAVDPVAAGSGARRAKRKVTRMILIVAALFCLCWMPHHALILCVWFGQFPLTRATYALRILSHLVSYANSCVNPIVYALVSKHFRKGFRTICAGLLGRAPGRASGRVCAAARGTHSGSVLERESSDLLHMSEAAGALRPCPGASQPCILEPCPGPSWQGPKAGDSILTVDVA
Procedure: as §1

[1] = Toxicity (motor impairment) noted in the SAR screen; format: in vivo, mice; conditions: 4 mg/kg, i.p.
Text: Minimal toxicity will be identified in mice by the rotarod procedure (Dunham and Miya, 1957). When a mouse is placed on a 1-inch knurled rod that rotates at a speed of 6 r.p.m., the animal can maintain its equilibrium for long periods of time. The animal is considered toxic if it falls off this rotating rod three times during a 1-minute period.
Structure-Activity Relationships of the NAX 5055 analog. SAR studies have been carried out in an effort to better understand structural determinants of its activity following systemic administration. […] Presence of the Lys-palm residue was insufficient to produce any observable anticonvulsant activity.

Substance	pIC50 (Y2 receptor subtype)	pKi (hGalR1; Table 2, own value for NAX 5055 (cf. b414), read-out: affinity toward galanin receptors, GalR1)	pKd (hGalR1; Table 18, Analog 5055, own value, read-out: Affinity, KD hGalR1)	pKi (hGalR1; hGalR1 expressed in HEK-293 cells, human [125I]galanin radioligand, preliminary study, read-out: estimated Ki for hGalR1)	pKi (hGalR2; Table 2, own value for NAX 5055 (cf. b414), read-out: affinity toward galanin receptors, GalR2)	pKd (hGalR2; Table 18, Analog 5055, own value, read-out: Affinity, KD hGalR2)	pKi (hGalR2; hGalR2 expressed in CHO-K1 cells, human [125I]galanin radioligand, preliminary study, read-out: estimated Ki for hGalR2)	toxicity (motor impairment) [1]
Ac-[Ahx5-24,K4(99mTc(CO)3-PADA),A26]-NPY	9.00							
Sar-Trp-Thr-Leu-Asn-Ser-Ala-Gly-Tyr-Leu-Leu-Gly-Pro-Lys-Lys-(Lys-palm)-Lys-NH2 [NAX 5055]		~8.05	~8.05	8.05	~8.22	~8.22	8.22	not observed
